2 compounds from patent US6881740B1, “Pharmaceutical agents” (Monash University, priority 1998, dated 2005) can be followed below.

Sequences of proteins named here, by UniProt entry; tags and fusion partners are left off. Residues count along the entry.
UniProt Q00960, 27-1482 limits assumed: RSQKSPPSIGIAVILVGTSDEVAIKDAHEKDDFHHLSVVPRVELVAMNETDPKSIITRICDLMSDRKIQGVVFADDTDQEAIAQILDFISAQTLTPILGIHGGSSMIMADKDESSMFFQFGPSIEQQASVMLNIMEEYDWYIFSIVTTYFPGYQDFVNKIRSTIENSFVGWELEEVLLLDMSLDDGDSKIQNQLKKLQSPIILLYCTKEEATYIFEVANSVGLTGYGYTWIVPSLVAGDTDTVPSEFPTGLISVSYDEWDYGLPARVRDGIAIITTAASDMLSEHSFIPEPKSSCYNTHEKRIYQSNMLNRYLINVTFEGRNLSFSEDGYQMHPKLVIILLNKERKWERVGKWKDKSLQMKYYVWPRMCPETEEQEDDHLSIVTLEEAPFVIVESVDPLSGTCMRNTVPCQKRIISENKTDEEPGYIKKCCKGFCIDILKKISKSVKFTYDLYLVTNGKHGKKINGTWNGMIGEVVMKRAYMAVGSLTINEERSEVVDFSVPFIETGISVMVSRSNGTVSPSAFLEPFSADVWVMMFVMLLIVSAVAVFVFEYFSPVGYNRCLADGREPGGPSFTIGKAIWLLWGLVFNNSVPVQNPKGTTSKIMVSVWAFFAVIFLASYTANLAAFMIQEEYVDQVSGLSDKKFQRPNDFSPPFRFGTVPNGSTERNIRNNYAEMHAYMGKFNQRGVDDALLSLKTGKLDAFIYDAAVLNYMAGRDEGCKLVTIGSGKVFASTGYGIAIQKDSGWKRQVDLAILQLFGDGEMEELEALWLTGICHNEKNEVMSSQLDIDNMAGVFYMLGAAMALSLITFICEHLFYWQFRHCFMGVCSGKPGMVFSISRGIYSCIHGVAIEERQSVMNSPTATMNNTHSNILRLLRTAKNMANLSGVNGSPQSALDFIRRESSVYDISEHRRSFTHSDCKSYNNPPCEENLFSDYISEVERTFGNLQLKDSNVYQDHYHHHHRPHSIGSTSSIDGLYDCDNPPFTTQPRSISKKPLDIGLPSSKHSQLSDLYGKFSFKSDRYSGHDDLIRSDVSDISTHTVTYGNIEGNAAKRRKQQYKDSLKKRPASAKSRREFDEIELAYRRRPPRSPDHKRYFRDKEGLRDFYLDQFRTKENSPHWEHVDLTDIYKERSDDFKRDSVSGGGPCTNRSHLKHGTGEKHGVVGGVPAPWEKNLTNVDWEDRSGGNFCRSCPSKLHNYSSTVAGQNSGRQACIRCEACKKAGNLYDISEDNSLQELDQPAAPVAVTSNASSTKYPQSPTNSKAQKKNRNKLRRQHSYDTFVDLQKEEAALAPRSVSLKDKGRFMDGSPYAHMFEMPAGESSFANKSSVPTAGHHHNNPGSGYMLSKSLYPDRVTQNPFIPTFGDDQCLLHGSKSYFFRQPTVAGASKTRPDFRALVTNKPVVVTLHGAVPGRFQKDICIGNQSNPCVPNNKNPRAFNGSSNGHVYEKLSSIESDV

Experiment [1] has as its target NMDA/polyamine sites (polyamine-sensitive [3H]-ifenprodil binding, rat cerebral cortex membranes) (Rattus norvegicus, UniProt P35439+Q00960). The experiment can be described thus: NMDA/polyamine site [3H]-ifenprodil binding assay. The note with it: [3H]-ifenprodil 4 nM, rat cerebral cortex homogenate, tested form: free base or hydrochloride (not specifie); for IC50: 2 h at 4° C., 3PPP 100 μM to block sigma sites; for Ki: competition curves analysed with Radlig. An excerpt:
Ifenprodil and eliprodil have been reported as antiischaemic agents (Gotti et al., 1988) and both compounds have been reported to associate with the polyamine sensitive site of the NMDA receptor complex (Carter et al., 1989 and 1990; Reynolds et al., 1989; and Robinson et al., 1990). […] These agents bind independently of the NMDA ion channel (Carter et al., 1991; Reynolds et al., 1989), appear not to cause behavioural effects (Carter et al., 1991), and may target specific heteromeric NMDA receptors (Williams, 1993; Nicola et al., 1994) uniquely distributed in forebrain regions (Standaert et al., 1994) affected in ischaemia and head trauma. […] Accordingly, compounds of the present invention are capable of binding to the NMDA receptor complex and providing a neuroprotective effect, or otherwise providing benefit in other conditions related to NMDA receptors.
Briefly, crude membrane suspensions containing 10% rat cerebral cortex were prepared in aqueous 50 mM Tris-HCl buffer (pH 7.4, 4° C.), using a Polytron homogeniser.
Assays contained 100 μl of cortex homogenate, [^3H]-ifenprodil (4 nM) and various concentrations of test drug. Nonspecific binding was determined using spermine (10 μM).
The sigma receptor ligand 3PPP(+)-3-(3-hydroxyphenyl)-N-propyl-piperidine (100 μM) was included in all tubes to block binding to sigma receptors. Incubation was for two hours at 4° C., ie., conditions favourable to NMDA/polyamine receptor binding. Assays were terminated with ice-cold buffer by rapid vacuum filtration using a Brandel Cell Harvester, through GF/B filter paper, presoaked in 0.025% polyethylimine. Filterpapers were collected, combined with scintillant and bound radioactivity determined using a Packard Scintillation counter.
Competition curves obtained for drugs active in each assay were analysed using the computer binding analysis program Radlig, using Kd=5.72 nM and 2.78 nM for polyamine/NMDA assays respectively.

Experiment [2] relates to cultured cerebellar granule cells. In words: Veratridine induced toxicity in neuronal cultures (MTT assay). The note with it: veratridine 100 μM, 60 minute exposure; 30 minutes pre-incubation with drug; viability at 18 hours by MTT; tested form: free base or hydrochloride (not specifie).
Experiment [3] concerns voltage-sensitive sodium channels (rat brain homogenates). The note with it: approximate IC50 from dose response curves, 30 minutes at 37° C., scorpion toxin present, tested form: free base or hydrochloride (not specifie). An excerpt:
Compounds that modulate voltage-sensitive sodium channels may be useful in a number of therapeutic indications including disorders related to neurological damage of the peripheral and/or the central nervous system. Affinity for voltage-sensitive sodium channels may be determined by measuring the displacement of labelled ligands from their binding sites on the sodium channel, for example the procedure of Catterall et al. (1981) uses [^3H]-batrachotoxinin A 20-α-benzoate. Compounds of the present invention show an affinity for voltage-sensitive sodium channels in this type of assay.
Sodium Channel Binding Assay
The general procedure of Catterall et al. (1981) was used with minor modifications. […] Bound radioactivity is assessed using a scintillation counter. From dose response curves approximate IC50 values for the test compounds were determined.

In experiment [1], `Cc1ccccc1C(O)Cc1cc(N2CCCC2)nc(N2CCCC2)n1` (stereo not drawn) showed an IC50 of 4050 nM and an inhibition constant (Ki) of 1320 nM.

In experiment [2], `OC(Cc1cc(N2CCCC2)nc(N2CCCC2)n1)c1ccc(Cl)cc1` (stereo not drawn) registered a 50% effective concentration (EC50) of 4 µM. The IC50 in experiment [3] came to 770 nM. Also, in experiment [1], the half-inhibitory concentration (IC50) turned out to be 400 nM and the inhibitory constant (Ki) worked out at 156 nM.
